Consider 1 molecule from the Kinase Knowledgebase extract (Sharma et al. 2016).

Sequences of proteins named here, by UniProt entry; tags and fusion partners are left off.
UniProt P00533, whole entry, looked up: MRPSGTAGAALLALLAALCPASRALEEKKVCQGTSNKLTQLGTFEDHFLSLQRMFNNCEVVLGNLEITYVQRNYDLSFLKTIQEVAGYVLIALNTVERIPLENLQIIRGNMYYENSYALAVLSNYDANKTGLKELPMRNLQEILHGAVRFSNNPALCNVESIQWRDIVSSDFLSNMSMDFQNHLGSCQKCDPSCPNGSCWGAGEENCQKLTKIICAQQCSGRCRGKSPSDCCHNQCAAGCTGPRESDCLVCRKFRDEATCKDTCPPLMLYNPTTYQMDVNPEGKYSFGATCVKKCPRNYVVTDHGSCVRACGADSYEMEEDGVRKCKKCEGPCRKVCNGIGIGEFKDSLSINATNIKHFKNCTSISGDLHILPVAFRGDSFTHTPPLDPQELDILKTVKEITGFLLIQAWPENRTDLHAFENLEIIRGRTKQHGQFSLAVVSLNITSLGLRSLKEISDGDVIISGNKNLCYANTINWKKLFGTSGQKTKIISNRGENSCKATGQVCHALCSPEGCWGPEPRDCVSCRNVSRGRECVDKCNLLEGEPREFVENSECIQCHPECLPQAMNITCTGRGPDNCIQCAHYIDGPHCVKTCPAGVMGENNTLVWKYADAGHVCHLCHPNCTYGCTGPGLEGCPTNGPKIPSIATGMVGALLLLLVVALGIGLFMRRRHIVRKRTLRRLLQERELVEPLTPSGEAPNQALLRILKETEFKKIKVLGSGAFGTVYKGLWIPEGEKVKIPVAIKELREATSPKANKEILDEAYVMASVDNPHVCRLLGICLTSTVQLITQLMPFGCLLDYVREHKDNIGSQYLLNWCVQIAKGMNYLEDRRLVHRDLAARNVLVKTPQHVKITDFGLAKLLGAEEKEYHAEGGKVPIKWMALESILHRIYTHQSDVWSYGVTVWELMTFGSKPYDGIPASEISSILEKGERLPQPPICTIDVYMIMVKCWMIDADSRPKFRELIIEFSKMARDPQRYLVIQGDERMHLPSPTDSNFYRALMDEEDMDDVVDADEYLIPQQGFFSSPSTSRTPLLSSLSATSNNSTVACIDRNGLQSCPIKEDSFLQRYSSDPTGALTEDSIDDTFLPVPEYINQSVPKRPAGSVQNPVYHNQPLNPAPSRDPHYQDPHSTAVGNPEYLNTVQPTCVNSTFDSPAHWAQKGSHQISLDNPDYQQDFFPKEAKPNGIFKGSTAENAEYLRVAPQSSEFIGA

Molecules are shown by their SMILES. Some results are limits rather than exact numbers.

This test has as its target EGFR (UniProt P00533).

For the molecule `COc1cc2ncnc(Nc3cc(OC)c(OC)c(OC)c3)c2cc1OC`, the half-maximal inhibitory concentration (IC50) (as a rule, the concentration that gives 50% inhibition) is no more than 500 nM.
